We go through eight molecules from PubChem BioAssay (NCI).

A short description of the test: NCI Yeast Anticancer Drug Screen. Data for the rad18 strain (AID 177). Particulars: S. cerevisiae rad18 mutant growth inhibition, active compounds read high. The method, then:
Growth inhibition of yeast strains with defined genetic alterations is measured as a screen for potential anti-cancer activity. Selected strains with alterations in DNA damage repair or cell cycle control were exposed to compounds and growth inhibition was measured relative to vehicle treated controls. The strain used in this assay is rad18

This is a selection; strong and weak results do not stand in their true shares. Some compounds were tested as several samples or in several runs, with calls that do not always agree. Calls of active or inactive are those of the source. No stated cut-off is given here; in the data, active means growth inhibition above about 70%; inactive means the rest.

For `CN(C)P(=O)(N(C)C)n1c(Nc2ccccc2)nnc1-c1ccccc1`, the growth inhibition is, setting by setting: (at 1.2 µM) inactive: 2%; (at 3.7 µM) inactive: -3%; (at 11.0 µM) inactive: 51%; (at 33.0 µM) active: 96%; (at 100.0 µM) active: 93%.
In the case of `O=C1OC(C(Cl)(Cl)Cl)Sc2ccccc21` (stereo not given), the growth inhibition was inactive: 1% (at 1.2 µM); inactive: 8% (at 3.7 µM); inactive: 25% (at 11.0 µM); inactive: 66% (at 33.0 µM); active: 85% (at 100.0 µM).
In the same order, the values of `O=[N+]([O-])c1cc([N+](=O)[O-])c2nsnc2c1` are inactive: 26%, inactive: 69%, active: 100%, active: 99% and active: 99%.
In the same order, the values of `N#Cc1cc([N+](=O)[O-])cc([N+](=O)[O-])c1N` are inactive: 7%, inactive: 14%, inactive: 17%, inactive: 31% and inactive: 44%.
For `NC(Cc1cnc[nH]1)C(=O)O` (stereo not given) the same measures were inactive: -11%, inactive: 50%, active: 95%, active: 98% and active: 99%.
For `COc1cccc(C[N+](C)(CCCl)CCCl)c1[N+](=O)[O-]`, the growth inhibition runs as follows: (at 1.2 µM) inactive: 8%; (at 3.7 µM) inactive: 30%; (at 11.0 µM) active: 73%; (at 33.0 µM) active: 95%; (at 100.0 µM) active: 96%.
For `CC(C)c1nc(Nc2ccccc2)n(P(=O)(N(C)C)N(C)C)n1` the same measures were inactive: -32%, inactive: -25%, inactive: -25%, active: 70% and active: 93%.
As for `FC1(F)SC2C(C1(F)F)C1(Cl)C(Cl)=C(Cl)C2(Cl)C1(Cl)Cl` (stereo not given), the growth inhibition runs as follows: (at 1.2 µM) inactive: 33%; (at 3.7 µM) active: 95%; (at 11.0 µM) active: 99%; (at 33.0 µM) active: 98%; (at 100.0 µM) active: 98%.
